According to PubChem BioAssay AID588492 (Sanford-Burnham Center for Chemical Genomics, 2011):
This is a selection; strong and weak results do not stand in their true shares. The source made the active and inactive calls.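 Rule for the calls: active = compounds giving at least 50% protection of heart cells from peroxide-induced death in the single-dose screen, raw or plate-pattern-corrected value; inactive = the rest.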

Assay: cardioprotection against H2O2-induced cell death, primary screen, uHTS, H9c2 cells, ATPLite luminescence (AID 588492);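 note: 0% = DMSO wells with peroxide and 100% = DMSO wells without peroxide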
Conditions: H9c2 cardiomyocytes, H2O2 injury protection, 2 h, at 20 µM, active compounds read high
With `C(Cc1nn[nH]n1)Cc1nn[nH]n1` the protection from H2O2 cell death was inactive: 3.2%.
For `Nc1ccc([As](=O)(O)c2ccc([N+](=O)[O-])cc2)cc1`, the protection from H2O2 cell death was inactive: -2.1%.
For `O=C(OC1CN2CCC1CC2)c1cccc(Cl)c1` (configuration not stated), the protection from H2O2 cell death was inactive: 13.2%.
With `CC(=O)NC(SC(=S)N(C)C)C(Cl)(Cl)Cl` (configuration not stated) the protection from H2O2 cell death was inactive: -6.3%.
In the case of `O=[N+]([O-])c1ncn(CCn2cnc([N+](=O)[O-])n2)n1`, the protection from H2O2 cell death is reported as inactive: 0.7%.
With `O=[N+]([O-])c1ccc(O)c(/C=N/Nc2ccc([N+](=O)[O-])cc2[N+](=O)[O-])c1` the protection from H2O2 cell death was inactive: -21.2%.
For `O=[As](O)(c1ccccc1)c1ccc(O)cc1`, the protection from H2O2 cell death was inactive: -2.8%.
With `C[C@H]1OP(=O)(Oc2ccccc2)[C@H](O)[C@H](O)[C@H]1N=[N+]=[N-]` (some centres not stated) the protection from H2O2 cell death was inactive: -1.3%.
With `O=P(Nc1nc2ccccc2s1)(c1ccccc1)c1ccccc1` the protection from H2O2 cell death was inactive: 11.1%.
For `COc1ccc(N)c([N+](=O)[O-])c1[N+](=O)[O-]`, the protection from H2O2 cell death was inactive: 26.8%.
For `Nc1ccc(CCCCOc2ccccc2)cc1`, the protection from H2O2 cell death was inactive: -9.2%.
With `O=P(Nc1ccccn1)(c1ccc(Br)cc1)c1ccc(Br)cc1` the protection from H2O2 cell death was inactive: 1.2%.
In the case of `c1nnnn1CCn1cnnn1`, the protection from H2O2 cell death is reported as inactive: 4.5%.
For `O=P(Nc1nccs1)(c1ccccc1)c1ccccc1`, the protection from H2O2 cell death was inactive: 15.9%.
For `CC(C)C(=O)NC(Sc1ccccc1)C(Cl)(Cl)Cl` (configuration not stated), the protection from H2O2 cell death was inactive: 0.7%.
With `CC(=O)Nc1ccc(Oc2c([N+](=O)[O-])cc([N+](=O)[O-])cc2[N+](=O)[O-])cc1` the protection from H2O2 cell death was inactive: -9.3%.
For `CC(=O)Nc1ccc([As](=O)(O)O)c(O)c1`, the protection from H2O2 cell death was inactive: 8.4%.
With `COC(=O)C1(C)COP(=O)(NCc2ccccc2)OC1` (configuration not stated) the protection from H2O2 cell death was inactive: 6.1%.
With `CC(=O)c1ccc(N2CC2c2ccncc2)cc1` (configuration not stated) the protection from H2O2 cell death was inactive: 4.4%.
In the case of `N#C/C(=C\c1ccc(N(CCBr)CCBr)cc1)C(N)=O`, the protection from H2O2 cell death is reported as inactive: 2.6%.
In the case of `C[C@H]1OP(=O)(Oc2ccccc2)C[C@@H]2O[C@@H]21` (some centres not stated), the protection from H2O2 cell death is reported as inactive: 2.7%.
For `C[C@@H]1C=CCP(=O)(Oc2ccccc2)O1` (some centres not stated), the protection from H2O2 cell death was inactive: 5.7%.
With `Cc1ccccc1CN(C)C(=O)COC(=O)C(O)(c1ccccc1)c1ccccc1` the protection from H2O2 cell death was inactive: -3.8%.
In the case of `CCc1cc(O)c([N+](=O)[O-])c(C)c1[N+](=O)[O-]`, the protection from H2O2 cell death is reported as inactive: -0.2%.
In the case of `CC(C)(C)C(=O)NC(Sc1ccccc1)C(Cl)(Cl)Cl` (configuration not stated), the protection from H2O2 cell death is reported as inactive: -8.7%.
For `CCOc1ccc(C2=NCC(CBr)S2)cc1` (configuration not stated), the protection from H2O2 cell death was inactive: 3.7%.
With `O=P1(Nc2nc3ccc(Cl)cc3s2)COc2ccccc2O1` (configuration not stated) the protection from H2O2 cell death was inactive: 0.2%.
For `O=c1c2cc([N+](=O)[O-])ccc2[nH]c2c([N+](=O)[O-])cc([N+](=O)[O-])cc12`, the protection from H2O2 cell death was inactive: -17.2%.
With `CN(C)C(=O)Oc1noc2ccccc12` the protection from H2O2 cell death was inactive: -0.1%.
With `CC(NC(=O)COC(=O)C(O)(c1ccccc1)c1ccccc1)c1ccccc1` (configuration not stated) the protection from H2O2 cell death was inactive: -8.8%.
For `Cc1ccccc1OP(=O)(Nc1ccccn1)Oc1ccccc1C`, the protection from H2O2 cell death was active: 60.7%.
With `CC(=O)NC(SC(=S)N(CC(C)C)CC(C)C)C(Cl)(Cl)Cl` (configuration not stated) the protection from H2O2 cell death was inactive: 6.4%.
In the case of `Cc1ccc(OP(=O)(Nc2ccccn2)Oc2ccc(C)cc2)cc1`, the protection from H2O2 cell death is reported as inactive: -12.8%.
With `COC(=O)c1cc2c(s1)N=C(c1ccccc1)N(C)P2(=O)N1CCOCC1` (configuration not stated) the protection from H2O2 cell death was inactive: 10.7%.
With `CCC(=O)N1C2C3N(C(=O)CC)C1C1N(C(=O)CC)C(C(N1C(=O)CC)N3C(=O)CC)N2C(=O)CC` the protection from H2O2 cell death was inactive: 7%.
With `O=C(OC1CN2CCC1CC2)c1ccccc1` (configuration not stated) the protection from H2O2 cell death was inactive: -5.4%.
In the case of `O=P1(N(CCCl)CCCl)OCCC2CCCCN21` (configuration not stated), the protection from H2O2 cell death is reported as inactive: -2%.
With `O=C(NC1CCS(=O)(=O)C1)NP(=S)(Oc1ccccc1)Oc1ccccc1` (configuration not stated) the protection from H2O2 cell death was inactive: 0.9%.
With `CCNC(=S)/N=C(\N)N[N+](=O)[O-]` the protection from H2O2 cell death was inactive: -6%.
For `Cc1ccc(NP(=O)(Oc2cccc(C)c2)Oc2cccc(C)c2)nc1`, the protection from H2O2 cell death was inactive: -1%.
With `c1ccc(-c2nn[nH]n2)c(-c2nn[nH]n2)c1` the protection from H2O2 cell death was inactive: -3.3%.
For `CCN(N=Nc1nonc1N)c1nonc1N`, the protection from H2O2 cell death was inactive: 0.1%.
In the case of `Nc1cccc2ccc([As](=O)(O)O)cc12`, the protection from H2O2 cell death is reported as inactive: -2.4%.
For `CN(C(=O)Cc1ccc(Cl)c(Cl)c1)[C@H]1CCCC[C@@H]1N1CCCC1`, the protection from H2O2 cell death was inactive: 3.1%.
With `Cc1ccc(NP(=O)(Oc2ccccc2F)Oc2ccccc2F)nc1` the protection from H2O2 cell death was inactive: -5.5%.
In the case of `Cc1cc(SC(NC(=O)c2ccc(F)cc2)C(Cl)(Cl)Cl)ncn1` (configuration not stated), the protection from H2O2 cell death is reported as inactive: 1.2%.
With `CCOP(=O)(Nc1ccccc1)OCC` the protection from H2O2 cell death was inactive: 7.1%.
With `CCCC1OP(N)(=O)OCC1CC` (configuration not stated) the protection from H2O2 cell death was inactive: 1.9%.
With `CC(=O)Nc1ccc([As](=O)(O)O)cc1` the protection from H2O2 cell death was inactive: 3%.
For `O=C(O)c1ccccc1[As](=O)(O)O`, the protection from H2O2 cell death was inactive: 2.6%.
In the case of `O=P(Nc1nc2ccc(Cl)cc2s1)(c1ccccc1)c1ccccc1`, the protection from H2O2 cell death is reported as inactive: -1.5%.
For `CN(C)P(=O)(N(C)C)n1c(Nc2ccccc2)nnc1-c1ccccc1`, the protection from H2O2 cell death was inactive: -2.5%.
In the case of `O=[N+]([O-])C1C(O)C(O)C([N+](=O)[O-])C(O)C1O` (configuration not stated), the protection from H2O2 cell death is reported as inactive: 1.5%.
With `Nc1cc(N)c2nonc2c1[N+](=O)[O-]` the protection from H2O2 cell death was inactive: 6.3%.
For `CC(C)CC(=O)NC(Sc1ccc(Cl)cc1)C(Cl)(Cl)Cl` (configuration not stated), the protection from H2O2 cell death was inactive: -5.8%.
For `O=C(NC(Sc1ccncn1)C(Cl)(Cl)Cl)c1ccccc1` (configuration not stated), the protection from H2O2 cell death was inactive: 5.9%.
With `Oc1ccccc1CNc1ccccn1` the protection from H2O2 cell death was inactive: 2.3%.
For `Cc1ccc(OP(=O)(Nc2nccs2)Oc2ccc(C)cc2)cc1`, the protection from H2O2 cell death was inactive: 3.5%.
In the case of `COc1ccccc1OP(=O)(Nc1ccc(C)cn1)Oc1ccccc1OC`, the protection from H2O2 cell death is reported as inactive: 22.6%.
In the case of `CN1CCCC(OC(=O)C(c2ccccc2)c2ccccc2)C1` (configuration not stated), the protection from H2O2 cell death is reported as inactive: -1.7%.
In the case of `Clc1ccc(Cl)c(NC2=NCC(CBr)S2)c1` (configuration not stated), the protection from H2O2 cell death is reported as inactive: -10.2%.
With `NC(=O)c1cc([N+](=O)[O-])cc([N+](=O)[O-])c1N` the protection from H2O2 cell death was inactive: 2.7%.
With `Cc1ccc(N/C(=N/P(=O)(N2CCOCC2)N2CCOCC2)N2CCOCC2)cc1` the protection from H2O2 cell death was inactive: -3%.
In the case of `CN(C(=O)Cc1ccc(Cl)c(Cl)c1)[C@H]1CCCC[C@H]1N1CCCC1`, the protection from H2O2 cell death is reported as inactive: -1.9%.
For `CN(C)C(=O)OCCc1n(C)cc[n+]1C`, the protection from H2O2 cell death was inactive: -1.4%.
In the case of `CC(C)c1nc(Nc2ccccc2)n(P(=O)(N(C)C)N(C)C)n1`, the protection from H2O2 cell death is reported as inactive: 8.9%.
For `CC(C)=N/N=C(\N)N[N+](=O)[O-]`, the protection from H2O2 cell death was inactive: 7.8%.
